{"source": "patent US5571521A", "about": "“Composition containing silver ammonium phenytoin complex and a phenytoin and use of said composition” (priority 1995, dated 1996)", "assay": "Solubility"}
{"substance": "Silver Ammonium Diphenyl Hydantoin [Silver ammonium phenytoin]", "values": [{"measurement": "solubility in aqueous media", "setting": "aqueous media", "value": "poor solubility"}, {"measurement": "solubility", "setting": "reaction solution (precipitation)", "value": "very insoluble"}]}
